According to ChEMBL document CHEMBL3046476, “Qsar for Acetylcholinesterase and Butyrylcholinesterase Inhibition by Cardiovascular Drugs and Benzodiazepines” (Med Chem Res, 2005):

Legend:
Cholinesterase = Cholinesterase (Equus caballus, UniProt P81908); test: Inhibition of Equus caballus (horse) serum butyrylcholinesterase (BChE) assessed as inhibition of BTCh hydrolysis by Ellman method
Acetylcholinesterase = Acetylcholinesterase (Electrophorus electricus, UniProt O42275)

SMILES: CNC1=Nc2ccc(Cl)cc2C(c2ccccc2)=[N+]([O-])C1
- Ki (Cholinesterase): 0.3 µM
- Ki (Acetylcholinesterase): 50 µM

SMILES: CNC1=Nc2ccc(Cl)cc2C(c2ccccc2)=[N+]([O-])C1.Cl
- pKi (Cholinesterase): 5.3
